Reference: publication PMC6061685 (Toxicological Sciences, 2018)

Biological target: T1, thyroid receptor beta (TRβ) (Homo sapiens, UniProt P10828)
T1 sequence (P10828 1-461): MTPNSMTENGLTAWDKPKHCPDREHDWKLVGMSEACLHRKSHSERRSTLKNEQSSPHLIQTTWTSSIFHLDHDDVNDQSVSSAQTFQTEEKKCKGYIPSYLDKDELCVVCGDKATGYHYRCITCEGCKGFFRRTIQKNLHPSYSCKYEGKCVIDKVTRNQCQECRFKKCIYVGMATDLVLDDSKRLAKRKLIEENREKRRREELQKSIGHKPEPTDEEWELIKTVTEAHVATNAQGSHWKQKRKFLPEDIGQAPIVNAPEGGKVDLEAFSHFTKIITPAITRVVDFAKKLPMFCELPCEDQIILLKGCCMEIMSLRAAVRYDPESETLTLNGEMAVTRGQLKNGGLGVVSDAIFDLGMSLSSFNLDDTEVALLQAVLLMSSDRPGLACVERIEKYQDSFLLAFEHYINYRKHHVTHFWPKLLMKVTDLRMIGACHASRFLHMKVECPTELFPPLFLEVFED
Experiment: U2OS TRβ CALUX antagonist assay
Format: cell-based
Settings: 24 h exposure; with EC50 concentration of T3 ([…] 10^−4 µg/ml)

1-850 thyroid hormone receptor antagonist [TR antagonist (1-850)]
TRβ Antagonist Assay IC50: 1.9 µg/mL
